Experimental data taken from patent US7652067B2, “Aqueous compositions containing monoester salts” (Millenium Specialty Chemicals, Inc., priority 2006, dated 2010).

Assay: Solubilization of hydrophobic organic compound in aqueous sodium monomenthyl glutarate (Na-MMG)
Conditions: MMG neutralised with 8.8% aqueous sodium bicarbonate

With `Cc1c(C)c2c(c(C)c1O)CCC(C)(CCCC(C)CCCC(C)CCCC(C)C)O2` (stereo not drawn) [α-tocopherol] the “concentration of hydrophobic compound in clear, homogeneous solution in aqueous Na-MMG” value was about 1.25%.
